Data taken from patent US20060079453A1, “Hla binding peptides and their uses” (priority 2002, published 2006).
Where “and” joins values, the source holds several entries; their conditions need not be identical. Equal values may be shown once. Read-outs that look alike come from different tables or passages of the source.

Experiments:
[1] = target: HLA-A*0202 (Homo sapiens, UniProt P04439, D140Y/D185E/D98H/E176V/E277Q/G131W/G231S/I119L/I121R/I166T/I218V/L180W/L300P/L318F/N151K/N90K/P208A/P217A/Q67R/Q86G/Q94H/R138H/R169H/T345S); assay: biochemical; assay type: binding
[2] = target: HLA-A*0201 (Homo sapiens, UniProt P04439, D140Y/D185E/D98H/E176V/E277Q/G131W/G231S/I119V/I121R/I166T/I218V/L300P/L318F/N151K/N90K/P208A/P217A/Q86G/Q94H/R138H/R169H/T345S); assay: biochemical; assay type: binding
[3] = target: HLA-A*0203 (Homo sapiens, UniProt P04439, A173T/D140Y/D185E/D98H/E277Q/G131W/G231S/I119V/I121R/I166T/I218V/L180W/L300P/L318F/N151K/N90K/P208A/P217A/Q86G/Q94H/R138H/R169H/T345S); assay: biochemical; assay type: binding
[4] = target: HLA-A*6802 (Homo sapiens, UniProt P04439, A269V/D140Y/D185E/E176V/E277Q/E87N/F33Y/G231S/I121R/I166T/I218V/L180W/L300P/L318F/N151K/P208A/P217A/Q86R/R138H/R169H/S129P/T345S/V36M); assay: biochemical; assay type: binding
[5] = target: HLA-A*3101 (Homo sapiens, UniProt P04439, A270S/D185E/E176V/E277Q/F33T/G231S/G80R/H175R/I121M/I218V/I322F/K168Q/L300P/L318F/M331R/P217A/Q94H/R138Q/T323A/T345S/T97I/V358M); assay: biochemical; assay type: binding
[6] = target: HLA-A*1101 (Homo sapiens, UniProt P04439, A114D/D185E/E176A/F33Y/L180Q/S129P/T187R); assay: biochemical; assay type: binding
[7] = target: HLA-A*3002 (Homo sapiens, UniProt P04439, D101N/D140H/D185E/E176R/F33S/G80R/H175R/K168Q/Q94H/R138E/R41S/V100E); assay type: binding; details: read-out: Binding affinity to A*3002 (expressed as an IC50)
[8] = target: HLA-A*0101 (Homo sapiens, UniProt P04439, A114D/A174V/A182V/D101N/D185E/E176A/E190D/L180R/Q94H/R68K/S129P/T187R/V100A/V91M/W191G); details: read-out: Binding affinity to A*0101 (expressed as an IC50)
[9] = target: HLA-A*2902 (Homo sapiens, UniProt P04439, A270S/D101N/D185E/E176V/E277Q/E87Q/F33T/G231S/H175R/I121M/I218V/I322F/K168Q/L300P/L318F/M331R/P208A/P217A/Q86L/T323A/T345S/V100A/V358M); assay: MHC molecular binding / Capture assay, IC50: A*2902; details: read-out: Binding affinity to A*2902 (expressed as an IC50)
[10] = A*0202 binding affinity (expressed as an IC50)
[11] = A*0201 binding affinity (expressed as an IC50)
[12] = A*0203 binding affinity (expressed as an IC50)
[13] = A*6802 binding affinity (expressed as an IC50)
[14] = read-out: A*6802 binding affinity (expressed as an IC50)

Compound: CC(C)C[C@H](NC(=O)[C@H](C)N)C(=O)N[C@@H](Cc1ccccc1)C(=O)N1CCC[C@H]1C(=O)N1CCC[C@H]1C(=O)N[C@@H](CCC(=O)O)C(=O)NCC(=O)N[C@H](C(=O)N[C@@H](CO)C(=O)N[C@H](C(=O)O)C(C)C)C(C)C
- IC50 [1, 10]: 1.1 nM

Compound: CSCC[C@H](NC(=O)[C@H](CC(C)C)NC(=O)[C@@H](N)CC(=O)O)C(=O)N[C@@H](CC(C)C)C(=O)N[C@@H](CC(C)C)C(=O)N[C@@H](CCCNC(=N)N)C(=O)N[C@@H](CC(C)C)C(=O)N[C@@H](CO)C(=O)N[C@@H](CCC(=O)O)C(=O)N1CCC[C@H]1C(=O)N[C@H](C(=O)O)C(C)C
- IC50 [2, 11]: 69 nM
- IC50 [1, 10]: 66 nM
- IC50 [3, 12]: 32 nM

Compound: CC[C@H](C)[C@H](NC(=O)[C@H](Cc1ccc(O)cc1)NC(=O)[C@H](CC(C)C)NC(=O)[C@H](CC(C)C)NC(=O)[C@@H](N)Cc1ccccc1)C(=O)N[C@@H](CC(C)C)C(=O)N[C@@H](Cc1ccccc1)C(=O)N[C@@H](CC(C)C)C(=O)N[C@H](C(=O)O)C(C)C
- IC50 [4, 13]: 6980 nM
- IC50 [1, 10]: 279 nM
- IC50 [3, 12]: 3090 nM

Compound: CC[C@H](C)[C@H](NC(=O)[C@H](CC(=O)O)NC(=O)[C@H](CC(C)C)NC(=O)[C@H](CCC(N)=O)NC(=O)[C@@H](NC(=O)[C@@H](NC(=O)[C@@H](N)Cc1ccccc1)C(C)C)C(C)C)C(=O)N[C@@H](CCC(N)=O)C(=O)N[C@@H](CO)C(=O)N[C@H](C(=O)N[C@@H](CCCCN)C(=O)O)[C@@H](C)O
- IC50 [5]: 48600 nM

Compound: CC(C)C[C@H](NC(=O)CN)C(=O)N[C@@H](Cc1c[nH]cn1)C(=O)NCC(=O)N[C@@H](CCC(N)=O)C(=O)N[C@@H](CC(=O)O)C(=O)N[C@@H](CC(C)C)C(=O)N[C@@H](Cc1ccccc1)C(=O)NCC(=O)N[C@H](C(=O)O)C(C)C
- IC50 [4, 13]: > 80000 nM

Compound: CC(C)C[C@H](NC(=O)[C@H](CCCCN)NC(=O)[C@H](CCC(=O)O)NC(=O)[C@H](CC(C)C)NC(=O)[C@@H](NC(=O)[C@@H](NC(=O)CN)[C@@H](C)O)[C@@H](C)O)C(=O)N[C@H](C(=O)N[C@@H](CC(N)=O)C(=O)N[C@@H](CCCNC(=N)N)C(=O)O)[C@@H](C)O
- IC50 [5]: 382 nM

Compound: CC[C@H](C)[C@H](N)C(=O)N[C@@H](CC(C)C)C(=O)N[C@@H](Cc1ccc(O)cc1)C(=O)N[C@@H](CCCNC(=N)N)C(=O)N[C@@H](CC(=O)O)C(=O)N[C@@H](CS)C(=O)N[C@H](C(=O)N[C@@H](C)C(=O)N[C@@H](Cc1ccc(O)cc1)C(=O)O)[C@@H](C)CC
- IC50 [5]: 53200 nM

Compound: CC[C@H](C)[C@H](N)C(=O)N[C@@H](CC(C)C)C(=O)N[C@@H](Cc1ccc(O)cc1)C(=O)N[C@@H](CO)C(=O)N[C@@H](C)C(=O)N[C@@H](Cc1c[nH]cn1)C(=O)N[C@@H](CC(=O)O)C(=O)N[C@H](C(=O)N[C@H](C(=O)N[C@H](C(=O)O)C(C)C)[C@@H](C)O)[C@@H](C)O
- IC50 [4, 13]: 6280 nM
- IC50 [1, 10]: 1.1 nM
- IC50 [3, 12]: 13 nM

Compound: CC[C@H](C)[C@H](NC(=O)CNC(=O)[C@H](CC(C)C)NC(=O)[C@@H](NC(=O)[C@@H](N)CCCCN)[C@@H](C)O)C(=O)N[C@@H](CO)C(=O)N[C@@H](Cc1ccc(O)cc1)C(=O)NCC(=O)N[C@@H](CCCNC(=N)N)C(=O)N[C@@H](CCCCN)C(=O)N[C@@H](CCCCN)C(=O)O
- IC50 [6]: 285 nM

Compound: CC(C)C[C@H](NC(=O)CNC(=O)[C@H](Cc1ccc(O)cc1)NC(=O)[C@@H](NC(=O)[C@@H](N)CCCCN)C(C)C)C(=O)N[C@@H](CO)C(=O)N[C@@H](C)C(=O)N[C@@H](Cc1ccccc1)C(=O)N[C@H](C(=O)O)C(C)C
- IC50 [2, 11]: 33 nM

Compound: CC(C)C[C@H](NC(=O)[C@H](C)NC(=O)[C@H](CC(C)C)NC(=O)[C@@H](N)CC(C)C)C(=O)N[C@@H](Cc1ccccc1)C(=O)N1CCC[C@H]1C(=O)N1CCC[C@H]1C(=O)N[C@@H](CCC(=O)O)C(=O)NCC(=O)N[C@H](C(=O)O)C(C)C
- IC50 [1, 10]: 0.73 nM

Compound: CC(C)C[C@H](NC(=O)[C@@H](N)CC(C)C)C(=O)N[C@@H](Cc1ccccc1)C(=O)N[C@@H](Cc1ccc(O)cc1)C(=O)N[C@@H](CO)C(=O)N[C@@H](CCCCN)C(=O)N[C@H](C(=O)N[C@@H](CCCNC(=N)N)C(=O)N[C@@H](CCCNC(=N)N)C(=O)O)C(C)C
- IC50 [5]: 38 nM

Compound: CC[C@H](C)[C@H](NC(=O)[C@H](CCC(=O)O)NC(=O)[C@H](CCC(N)=O)NC(=O)[C@H](CCCNC(=N)N)NC(=O)[C@H](CCCCN)NC(=O)[C@H](CCCCN)NC(=O)[C@H](CO)NC(=O)[C@H](Cc1ccc(O)cc1)NC(=O)[C@H](CC(C)C)NC(=O)[C@@H](N)CC(C)C)C(=O)O
- IC50 [1]: 382 nM

Compound: CC[C@H](C)[C@H](NC(=O)[C@H](CO)NC(=O)[C@H](CO)NC(=O)[C@@H](NC(=O)[C@H](Cc1ccccc1)NC(=O)[C@@H](NC(=O)[C@H](CCSC)NC(=O)[C@H](CCC(N)=O)NC(=O)[C@@H](N)CC(N)=O)[C@@H](C)CC)C(C)C)C(=O)O
- IC50 [4, 13]: 198 nM

Compound: C[C@H](NC(=O)[C@H](C)NC(=O)[C@H](Cc1ccc(O)cc1)NC(=O)[C@H](C)NC(=O)[C@H](C)NC(=O)[C@@H]1CCCN1)C(=O)N[C@@H](CCC(N)=O)C(=O)NCC(=O)N[C@@H](Cc1ccc(O)cc1)C(=O)N[C@@H](CCCCN)C(=O)O
- IC50 [6]: 456 nM

Compound: CC(C)C[C@H](NC(=O)[C@@H]1CCCN1)C(=O)N[C@H](C(=O)N[C@@H](CS)C(=O)N[C@@H](CC(N)=O)C(=O)NCC(=O)N[C@H](C(=O)N[C@@H](CC(C)C)C(=O)N[C@@H](CCC(N)=O)C(=O)NCC(=O)N[C@H](C(=O)O)C(C)C)C(C)C)C(C)C
- IC50 [2, 11]: 91 nM and 26 nM
- IC50 [3, 12]: 36 nM

Compound: CSCC[C@H](NC(=O)[C@H](CC(C)C)NC(=O)CNC(=O)[C@@H]1CCCN1C(=O)CNC(=O)[C@@H]1CCCN1C(=O)CNC(=O)[C@H](CC(C)C)NC(=O)[C@@H](N)CCC(N)=O)C(=O)N[C@@H](CCC(=O)O)C(=O)N[C@H](C(=O)O)C(C)C
- IC50 [2, 11]: 194 nM

Compound: CC[C@H](C)[C@H](NC(=O)[C@@H](N)CO)C(=O)N1CCC[C@H]1C(=O)N[C@@H](Cc1c[nH]cn1)C(=O)N[C@@H](C)C(=O)N[C@@H](C)C(=O)N[C@@H](CS)C(=O)N[C@@H](Cc1c[nH]cn1)C(=O)N[C@@H](CCCNC(=N)N)C(=O)O
- IC50 [6]: 352 nM

Compound: CC(C)C[C@H](NC(=O)[C@H](CO)NC(=O)[C@H](CC(C)C)NC(=O)[C@@H](N)CO)C(=O)NCC(=O)N[C@@H](Cc1ccccc1)C(=O)N[C@@H](CC(C)C)C(=O)N[C@@H](Cc1ccccc1)C(=O)N[C@@H](CC(C)C)C(=O)N[C@H](C(=O)O)C(C)C
- IC50 [2, 11]: 1.9 nM

Compound: CC(C)C[C@H](NC(=O)[C@@H](NC(=O)[C@@H](NC(=O)[C@H](Cc1ccccc1)NC(=O)[C@H](CCCCN)NC(=O)[C@H](CC(C)C)NC(=O)[C@H](CCC(=O)O)NC(=O)[C@H](CCCCN)NC(=O)[C@H](C)NC(=O)[C@H](CC(C)C)NC(=O)[C@@H](N)C(C)C)C(C)C)[C@@H](C)O)C(=O)O
- IC50 [3, 12]: 194 nM

Compound: CC[C@H](C)[C@H](NC(=O)[C@H](CCCNC(=N)N)NC(=O)[C@H](CC(C)C)NC(=O)[C@H](CC(=O)O)NC(=O)[C@H](C)NC(=O)[C@@H](NC(=O)[C@@H](N)C(C)C)C(C)C)C(=O)N[C@H](C(=O)N[C@@H](Cc1ccc(O)cc1)C(=O)N[C@@H](CCCNC(=N)N)C(=O)O)C(C)C
- IC50 [5]: 41 nM

Compound: ALGTTGYV
- IC50 ([2]; read-out: A*0201 binding affinity (expressed as an IC50)): 93 nM
- IC50 [4, 14]: 28300 nM
- IC50 ([1]; read-out: A*0202 binding affinity (expressed as an IC50)): 6.7 nM

Compound: IMNIILMTLY
- IC50 [7]: 1.8 nM
- IC50 [8]: 150 nM
- IC50 [9]: 1.7 nM

Compound: ISDYRHIYQY
- IC50 [8]: 28 nM

Compound: ISDYRHYQY
- IC50 [7]: 382 nM
- IC50 [8]: 13 nM
- IC50 [9]: 37 nM

Compound: LLWQPIPVTIV
- IC50 [4, 14]: 62 nM
- IC50 ([3]; read-out: A*0203 binding affinity (expressed as an IC50)): 18 nM

Compound: LTDLLILRCY
- IC50 [8]: 64 nM

Compound: LTDLLIRCY
- IC50 [8]: 13 nM

Compound: RFHNIRGRW
- IC50 [8]: 52900 nM

Compound: SSPLENNFY
- IC50 [8]: 117 nM

Compound: YSDIIRELRYY
- IC50 [8]: 20 nM

Compound: YSDIRELRYY
- IC50 [7]: 456 nM
- IC50 [8]: 9.4 nM
